Data on 27 compounds can be found in patent US10130633B2, “Compounds” (BAYER PHARMA AKTIENGESELLSCHAFT, priority 2013, dated 2018).

Assay [1] has as its system wildtype Wnt pathway. Kind of assay: HEK293 TOP reporter assay, wildtype Wnt pathway stimulated with Wnt-3a. In kind it is cell-based, human. Particulars: HEK293 TOP cells, EC50 concentration of recombinant Wnt-3a, 16 hours; read-out: HEK TOP OncoFlash IC50. The protocol: Measurement of luciferase expression was done as described for the constitutive active Wnt assay.
In order to discover and characterize small molecules which inhibit the wildtype Wnt pathway, a cellular reporter assay was employed. […] Stable transfectants were generated by selection with 300 μg/ml Hygromycin.

Assay [2] relates to HCT116 FOP control reporter cell line. As to the kind of experiment: HCT116 FOPFlash control reporter assay (FOP control vector, non-functional TCF elements). In kind it is cell-based. Conditions: HCT116 FOP control reporter cells, 36 hours incubation, luciferase expression. From the text:
In a parallel approach, HCT116 cells were cotransfected with the FOP control vector and pcDNA3. The FOP vector is identical to the TOP construct, but it contains instead of functional TCF elements a randomized, non-functional sequence. For this transfection a stable transfected cell line was generated as well.

Some results are limits rather than exact numbers.

For `COc1ccc(C(=O)Nc2ccc(-c3ccccc3F)nc2)cc1NC(=O)CN1CC2CCC(C1)O2` [Example 2, N-[6-(2-fluorophenyl)pyridin-3-yl]-4-methoxy-3-[(8-oxa-3-azabicyclo[3.2.1]oct-3-ylacetyl)amino]benzamide], the half-inhibitory concentration (IC50) (commonly the concentration that gives 50% inhibition) in assay [1] was 120 nM; in assay [2] (Homo sapiens, HCT-116, 36 h), at least 50000 nM. As to `O=C(CN1CC2CCC(C1)O2)Nc1cc(C(=O)Nc2ccc(-c3ccccc3F)nc2)ccc1OC(F)(F)F` [Example 6, N-[6-(2-fluorophenyl)pyridin-3-yl]-3-[(8-oxa-3-azabicyclo[3.2.1]oct-3-ylacetyl)amino]-4-(trifluoromethoxy)benzamide], the IC50 in assay [1] is 13 nM. As for `CC(C(=O)Nc1cc(C(=O)Nc2ccc(-c3ccccc3F)nc2)ccc1OC(F)(F)F)N1CCOCC1` (centres unmarked) [Example 7, N-[6-(2-fluorophenyl)pyridin-3-yl]-3-{[2-(morpholin-4-yl)propanoyl]amino}-4-(trifluoromethoxy)benzamide], in assay [2] (Homo sapiens, HCT-116, 36 h), the IC50 was at least 50000 nM.

As to `O=C(CN1CCOCC1)Nc1cc(C(=O)Nc2ncc(-c3ccccc3)s2)ccc1OC(F)(F)F` [Example 14, 3-[(morpholin-4-ylacetyl)amino]-N-(5-phenyl-1,3-thiazol-2-yl)-4-(trifluoromethoxy)benzamide], the IC50 in assay [1] was 550 nM; in assay [2] (Homo sapiens, HCT-116, 36 h), at least 50000 nM. Take `COc1ccc(NC(=O)c2ncc(-c3ccccc3)o2)cc1NC(=O)CN1CCOCC1` [Example 20, N-{4-methoxy-3-[(morpholin-4-ylacetyl)amino]phenyl}-5-phenyl-1,3-oxazole-2-carboxamide]: the IC50 in assay [1] was 2200 nM; in assay [2] (Homo sapiens, HCT-116, 36 h), at least 50000 nM.

Consider `O=C(CN1CCOCC1)Nc1cc(NC(=O)c2ccc(-c3cc(F)cc(F)c3)nc2)ccc1OC(F)(F)F` [Example 27, 6-(3,5-difluorophenyl)-N-{3-[(morpholin-4-ylacetyl)amino]-4-(trifluoromethoxy)phenyl}nicotinamide], for which the IC50 in assay [1] is 1000 nM; in assay [2] (Homo sapiens, HCT-116, 36 h), at least 50000 nM. With `O=C(CN1CCOCC1)Nc1cc(NC(=O)c2ccc(-c3cccc(F)c3)nc2)ccc1OC(F)(F)F` [Example 28, 6-(3-fluorophenyl)-N-{3-[(morpholin-4-ylacetyl)amino]-4-(trifluoromethoxy)phenyl}nicotinamide], the IC50 in assay [1] was 800 nM; in assay [2] (Homo sapiens, HCT-116, 36 h) it was at least 50000 nM. The matching figures for `COc1ccc(-c2ccc(C(=O)Nc3ccc(OC)c(NC(=O)CN4CCOCC4)c3)s2)cc1` [Example 35, N-{4-methoxy-3-[(morpholin-4-ylacetyl)amino]phenyl}-5-(4-methoxyphenyl)thiophene-2-carboxamide]: 910 nM and at least 50000 nM. For `O=C(Nc1nnc(-c2ccccc2)s1)c1ccc(OC(F)F)c(NC(=O)C2(N3CCOCC3)CC2)c1` [Example 37, 4-(difluoromethoxy)-3-({[1-(morpholin-4-yl)cyclopropyl]carbonyl}amino)-N-(5-phenyl-1,3,4-thiadiazol-2-yl)benzamide] the same measures were 280 nM and at least 50000 nM. The matching figures for `O=C(Nc1nnc(-c2ccccc2)s1)c1ccc(OC(F)F)c(NC(=O)C2(N3CCN(C4CC4)CC3)CC2)c1` [Example 38, 3-({[1-(4-cyclopropylpiperazin-1-yl)cyclopropyl]carbonyl}amino)-4-(difluoromethoxy)-N-(5-phenyl-1,3,4-thiadiazol-2-yl)benzamide]: 200 nM and at least 50000 nM. Regarding `O=C(CN1CCN(C2CC2)CC1)Nc1cc(C(=O)Nc2nnc(-c3ccccc3)s2)ccc1OC(F)F` [Example 41, 3-{[(4-cyclopropylpiperazin-1-yl)acetyl]amino}-4-(difluoromethoxy)-N-(5-phenyl-1,3,4-thiadiazol-2-yl)benzamide], the IC50 in assay [1] is 720 nM; in assay [2] (Homo sapiens, HCT-116, 36 h) it was at least 50000 nM.

As for `COCc1ccc(C(=O)Nc2nnc(-c3ccccc3)s2)cc1NC(=O)C1(N2CCN(C3CC3)CC2)CC1` [Example 44, 3-({[1-(4-cyclopropylpiperazin-1-yl)cyclopropyl]carbonyl}amino)-4-(methoxymethyl)-N-(5-phenyl-1,3,4-thiadiazol-2-yl)benzamide], the IC50 in assay [1] is 196 nM; in assay [2] (Homo sapiens, HCT-116, 36 h), at least 50000 nM. Consider `CN1CCN(C2(C(=O)Nc3cc(C(=O)Nc4nnc(-c5ccccc5)s4)ccc3CS(C)(=O)=O)CC2)CC1` [Example 49, 3-({[1-(4-methylpiperazin-1-yl)cyclopropyl]carbonyl}amino)-4-[(methylsulfonyl)methyl]-N-(5-phenyl-1,3,4-thiadiazol-2-yl)benzamide], for which the IC50 in assay [1] is 45 nM; in assay [2] (Homo sapiens, HCT-116, 36 h), at least 50000 nM.

For `O=C(Nc1nnc(-c2ccccc2)s1)c1ccc(OC(F)(F)F)c(NC(=O)C2(N3CCN(C4CC4)CC3)CC2)c1` [Example 51, 3-({[1-(4-cyclopropylpiperazin-1-yl)cyclopropyl]carbonyl}amino)-N-(5-phenyl-1,3,4-thiadiazol-2-yl)-4-(trifluoromethoxy)benzamide], the IC50 in assay [1] is 373 nM; in assay [2] (Homo sapiens, HCT-116, 36 h), at least 50000 nM. For `O=C(CN1CCN(C2CC2)CC1)Nc1cc(C(=O)Nc2nnc(-c3ccccc3)s2)ccc1OC(F)(F)F` [Example 53, 3-{[(4-cyclopropylpiperazin-1-yl)acetyl]amino}-N-(5-phenyl-1,3,4-thiadiazol-2-yl)-4-(trifluoromethoxy)benzamide], the IC50 in assay [1] is 820 nM; in assay [2] (Homo sapiens, HCT-116, 36 h) it was at least 50000 nM. Regarding `CC(C(=O)Nc1cc(C(=O)Nc2nnc(-c3ccccc3)s2)ccc1OC(F)(F)F)N1CCN(C)CC1` (centres unmarked) [Example 58, 3-{[2-(4-methylpiperazin-1-yl)propanoyl]amino}-N-(5-phenyl-1,3,4-thiadiazol-2-yl)-4-(trifluoromethoxy)benzamide], the IC50 in assay [1] came out at 270 nM. Consider `O=C(Nc1ccc(OC(F)(F)F)c(NC(=O)C2(N3CCOCC3)CC2)c1)c1ccc(-c2cc(F)cc(F)c2)nc1` [Example 60, 6-(3,5-difluorophenyl)-N-[3-({[1-(morpholin-4-yl)cyclopropyl]carbonyl}amino)-4-(trifluoromethoxy)phenyl]nicotinamide], for which the IC50 is 290 nM in assay [1] and at least 50000 nM in assay [2] (Homo sapiens, HCT-116, 36 h). `CC(C(=O)Nc1cc(C(=O)Nc2ccc(-c3ccccc3F)nc2)ccc1OC(F)(F)F)N1CCN(C)CC1` (centres unmarked) [Example 64, N-[6-(2-fluorophenyl)pyridin-3-yl]-3-{[2-(4-methylpiperazin-1-yl)propanoyl]amino}-4-(trifluoromethoxy)benzamide] yielded an IC50 in assay [2] (Homo sapiens, HCT-116, 36 h) of at least 50000 nM. Consider `O=C(Nc1ccc(-c2ccccc2F)nc1)c1ccc(OC(F)(F)F)c(NC(=O)C2(N3CCOCC3)CC2)c1` [Example 68, N-[6-(2-fluorophenyl)pyridin-3-yl]-3-({[1-(morpholin-4-yl)cyclopropyl]carbonyl}amino)-4-(trifluoromethoxy)benzamide], for which the IC50 in assay [1] was 5.17 nM; in assay [2] (Homo sapiens, HCT-116, 36 h), at least 50000 nM. The matching figures for `NC(=O)c1ccc(C(=O)Nc2ccc(-c3ccccc3F)nc2)cc1NC(=O)C1(N2CCOCC2)CC1` [Example 75, N^4-[6-(2-fluorophenyl)pyridin-3-yl]-2-({[1-(morpholin-4-yl)cyclopropyl]carbonyl}amino)terephthalamide]: 27 nM and at least 50000 nM. Regarding `O=C(Nc1ccc(-c2ccccc2F)nc1)c1ccc(Cl)c(NC(=O)C2(N3CCOCC3)CC2)c1` [Example 79, 4-chloro-N-[6-(2-fluorophenyl)pyridin-3-yl]-3-({[1-(morpholin-4-yl)cyclopropyl]carbonyl}amino)benzamide], the IC50 in assay [1] is 64 nM; in assay [2] (Homo sapiens, HCT-116, 36 h), at least 50000 nM.

As to `O=C(Nc1ccc(-c2ccccc2)cn1)c1ccc(OC(F)(F)F)c(NC(=O)C2(N3CCOCC3)CC2)c1` [Example 95, 3-({[1-(morpholin-4-yl)cyclopropyl]carbonyl}amino)-N-(5-phenylpyridin-2-yl)-4-(trifluoromethoxy)benzamide], the 50% inhibitory concentration (IC50) in assay [1] was 50 nM; in assay [2] (Homo sapiens, HCT-116, 36 h) it was at least 50000 nM.

Take `O=C(CN1CCOCC1)Nc1cc(C(=O)Nc2ccc(-c3ccccc3)cn2)ccc1OC(F)(F)F` [Example 131, 3-[(morpholin-4-ylacetyl)amino]-N-(5-phenylpyridin-2-yl)-4-(trifluoromethoxy)benzamide]: the IC50 in assay [1] is 100 nM; in assay [2] (Homo sapiens, HCT-116, 36 h) it was at least 50000 nM. For `O=C(Nc1ccc(-c2ccccc2F)nc1)c1ccc(OC2CC2)c(NC(=O)C2(N3CCN(C4CC4)CC3)CC2)c1` [Example 136, 4-(cyclopropyloxy)-3-({[1-(4-cyclopropylpiperazin-1-yl)cyclopropyl]carbonyl}amino)-N-[6-(2-fluorophenyl)pyridin-3-yl]benzamide], the IC50 is 75 nM in assay [1] and at least 50000 nM in assay [2] (Homo sapiens, HCT-116, 36 h). Turning to `CC(C(=O)Nc1cc(C(=O)Nc2nnc(-c3ccccc3)s2)ccc1OC(F)(F)F)N1CCOCC1` (centres unmarked) [Example 241, 3-{[2-(morpholin-4-yl)propanoyl]amino}-N-(5-phenyl-1,3,4-thiadiazol-2-yl)-4-(trifluoromethoxy)benzamide], in assay [2] (Homo sapiens, HCT-116, 36 h), the IC50 is at least 50000 nM.

In turn, `CC(C(=O)Nc1cc(C(=O)Nc2ccc(-c3cccc(F)c3)nc2)ccc1OC(F)(F)F)N1CC2CCC(C1)O2` (centres unmarked) [Example 248, N-[6-(3-fluorophenyl)pyridin-3-yl]-3-{[2-(8-oxa-3-azabicyclo[3.2.1]oct-3-yl)propanoyl]amino}-4-(trifluoromethoxy)benzamide] displayed an IC50 in assay [2] of at least 50000 nM. On to “N-[6-(2-fluorophenyl)pyridin-3-yl]-3-{[(2S)-2-(4-methylpiperazin-1-yl)propanoyl]amino}-4-(trifluoromethoxy)benzamide or N-[6-(2-fluorophenyl)pyridin-3-yl]-3-{[(2R)-2-(4-methylpiperazin-1-yl)propanoyl]amino}-4-(trifluoromethoxy)benzamide [Example 66]”, for which the IC50 in assay [1] amounted to 130 nM.
